Bioassay records (PubChem)
ERG Ets-DNA blk = blocks human ERG Ets domain binding to DNA; fluorescence polarization, His-ERG Ets domain / labelled DNA; Potency, µM (series often up to 76.9 µM), inactives show at the top dose FP activity, negative = inhibition, hits mostly inhibitors; 0.028% of 370,000 active; AID 624246; P11308; active = well fitted inhibition curve with a large enough effect in the polarisation, with a control signal flat; inconclusive = small, poorly fitted or top-dose-only effect, or effect the other way, or a change in a side signal; inactive = no such curve, though single readings can be large or run the other way; the % refers to the polarisation;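 also: polarization taken with two DNA probes labelled with fluorescein and Texas red; potency is read from the fitted curve at half-maximal effect; % of control where 0% means no effect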
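His-tagged ERG Ets domain (1 uM in the protein solution; 300mM KCl, 50mM Tris-HCl, 1mM EDTA, 1mM DTT, pH 7.5) received compound, then a probe mix of 5 nM fluorescein-DNA and 100nM Texas-615-DNA. Fluorescence polarization was read for both dyes.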
miR-21 reporter = miR-21 reporter, rising signal | HeLa miR-21 FLuc reporter, luciferase, 48 h | Potency, µM (doses to about 38.3 µM), inactives show at the top dose reporter change, positive = more light | 340,000 tested, under 10 active | AID 2288; active = well fitted rising curve with a large enough effect; inconclusive = small, poorly fitted or top-dose-only effect; inactive = no such curve, though single readings can be large or run the other way;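 note: % of control where 0% means no effect; miR-21 action dims this reporter so a rising signal means less miR-21 action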
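HeLa cells stably expressing CMV-driven firefly luciferase with a downstream miR-21 binding sequence, endogenously expressing miR-21, were treated with titrations (up to about 40uM final) for 48 hours at 37 degree Celsius. Luciferase luminescence was read after lysis.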
Mito fusion yeast = blocks mitochondrial division or promotes mitochondrial fusion. S. cerevisiae fusion-defective mutant growth rescue, CellTiterGlo 48 h. Potency, µM (highest dose often 46.1 µM), for the others: top-dose growth rescue (activation), usual class: activators. 0.23% of 320,000 active. AID 485298; also: potency is read from the fitted curve at half-maximal effect; % of control where 0% means no effect; nearly all actives have a fitted effect of over 45% in size
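Yeast fusion mutant, YPEG (non-fermentable carbon), compound, 48 h at 37C non-permissive; CellTiterGlo added, 10 min RT, luminescence read. Rescued growth = division inhibition.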
S-ASM inh = blocks human secretory acid sphingomyelinase; Potency, µM (doses to about 57.5 µM), without a hit: top-dose activity change, negative = inhibition, hits mostly inhibitors; 0.006% of 340,000 active; P17405; placental ASM, HMU-PC fluorogenic substrate, 60 min; also: potency is read from the fitted curve at half-maximal effect
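HMU-PC0 cleavage (9 uM final) by human placental ASM, 60 min at 37 °C following 10 min compound exposure at RT; stopped at pH 10, fluorescence Ex 386/Em 447 nm.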
RXFP1 ag = RXFP1 (human) receptor agonism | HEK293T-RXFP1 cAMP TR-FRET, 30 min; response scale: percent of porcine relaxin response, buffer zero | Potency, µM (series often up to 57.5 µM), for inactives: at the highest dose activation, actives largely listed as activators | Q9HBX9 | 0.3% of 370,000 active; also: potency is read from the fitted curve at half-maximal effect; % is scaled to controls: 0 for no effect and ±100 for the full control effect; nearly all actives have a fitted effect of over 60% in size
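Agonist response is measured as cAMP accumulation in an RXFP1-transfected HEK293T line under PDE4 inhibition. Values are scaled between buffer-only and 29 nM porcine relaxin, and EC50s come from standard Hill equation fits.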
RXFP1 antagonist = antagonists of human relaxin receptor RXFP1; HEK293-RXFP1, relaxin-stimulated cAMP HTRF, 30 min; stronger effect = lower value; 0.59% of 350,000 active; Q9HBX9; activity change, negative = inhibition, % at 57.5 µM;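 active = activity change of -60% or lower, but not beyond a set lower limit; inconclusive = change between -60% and -40%, or beyond the set limit; inactive = change above -40%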; also: % is scaled to controls: 0 for no effect and ±100 for the full control effect
Numbers without * were called inactive; ? = inconclusive; . = no result given; ! = a repeat was not active. The list is not random: actives were taken first. Their share in the collection is about 0.72%. Unless noted, calls follow the shape of the dose curve; as a rule, active = well fitted curve in the direction sought with a large enough effect; inconclusive = small, poorly fitted or top-dose-only effect, or another doubt; inactive = no such curve, though single readings can be large; an effect the other way counts as inactive or inconclusive.

SMILES	ERG Ets-DNA blk	miR-21 reporter	Mito fusion yeast	S-ASM inh	RXFP1 ag	RXFP1 antagonist
O=C(Nc1ccccc1)c1ccc(=O)n(Cc2ccc(F)c(F)c2)c1	-3%	0%	24%	-2%	-1%	-62*
O=C(Nc1ccc(F)c(F)c1)c1ccc(=O)n(Cc2ccc(F)cc2)c1	-4%	26%	.	.	-1%	.
CCc1nonc1NC(=O)c1oc2cc(C)c(C)cc2c1C	3%	-27%	0%	-6%	-2%	12
CCc1nonc1NC(=O)c1oc2ccc(Br)cc2c1C	-9%	-5%	1%	-1%	25µM*!	-14
CC(C)(C)c1ccc(C(=O)N2CCC(NC(=O)c3ccccc3)CC2)cc1	-4%	2%	35µM*	-2%	-4%	-9
COc1ccc(NC(=O)C2CCCN(c3cnccn3)C2)cc1 (stereo unspecified)	-12%	-11%	10%	0%	7%	-2
CC(C)(C)c1ccc(NC(=O)C2CCCN(c3cnccn3)C2)cc1 (stereo unspecified)	-4%	?	13µM*	13%	1%	-25
O=C1C(Cl)=C(NC(=O)c2ccccc2)C(=O)C(Cl)=C1NC(=O)c1ccccc1	5%	?	-13%	-2%	-4%	-105*
O=C(NC1=C(Nc2ccc(Cl)cc2)C(=O)c2ccccc2C1=O)c1ccccc1	4%	29%	?	-14%	2%	-12
CC(C)[C@@H]1CC[C@@H](C)C[C@H]1OC(=O)C[n+]1cc(-c2ccc(Cl)cc2)n2c1CCCCC2	-8%	?	2%	-3%	0%	-74*
CN1CCc2c(sc(NC(=O)CS(=O)(=O)c3ccccc3)c2C(N)=O)C1	3%	.	2%	40%	0%	-63*
CCCN1CCc2c(sc(NC(=O)CCS(=O)(=O)c3ccccc3)c2C(N)=O)C1	-29%	1%	1%	136%	-1%	-11
Cn1cc(CCC(=O)NCc2cccc(Cl)c2)c2ccccc21	2%	1%	32µM*	-3%	0%	8
O=C(c1ccc(NS(=O)(=O)c2ccccc2)cc1)N1CCN(c2ccccc2)CC1	13%	.	.	-1%	3%	11
Cc1ccc(C(=O)NC(=S)Nc2nc(-c3cccc([N+](=O)[O-])c3)cs2)c(Cl)c1	4%	1%	0%	1%	3%	-89*
O=C(Cc1ccccc1)Nc1nc(-c2cccc([N+](=O)[O-])c2)cs1	0%	-7%	-3%	-1%	2%	-10
CCn1c2ccccc2c2cc(/C=N/NC(=O)c3cc(O)cc(O)c3)ccc21	7%	-5%	-7%	12%	4%	-83*
CCC1(C)Cc2c(sc3nc(SC)[nH]c(=S)c23)CO1 (stereo unspecified)	-6%	-7%	-12%	0%	25µM*	8
C#Cc1ccc([C@H]2C=C(C(=O)N3CCOCC3)O[C@@H](OCc3ccc(CO)cc3)C2)cc1	1%	-1%	1%	-4%	0%	.
CCOCCCN(C)C1CCN(C(=O)c2oc3ccccc3c2NC(=O)c2cccc([N+](=O)[O-])c2)CC1	-8%	-6%	-8%	-2%	0%	-66*

Copied from the list.
Result for CCn1c2ccccc2c2cc(/C=N/NC(=O)c3cc(O)cc(O)c3)ccc21 under miR-21 reporter: -5%
Result for CCOCCCN(C)C1CCN(C(=O)c2oc3ccccc3c2NC(=O)c2cccc([N+](=O)[O-])c2)CC1 under RXFP1 antagonist: -66*

Of the compounds above, these contain a tert-butyl group:
SMILES	ERG Ets-DNA blk	miR-21 reporter	Mito fusion yeast	S-ASM inh	RXFP1 ag	RXFP1 antagonist
CC(C)(C)c1ccc(C(=O)N2CCC(NC(=O)c3ccccc3)CC2)cc1	-4%	2%	35µM*	-2%	-4%	-9
CC(C)(C)c1ccc(NC(=O)C2CCCN(c3cnccn3)C2)cc1 (stereo unspecified)	-4%	?	13µM*	13%	1%	-25

(further entries)
SMILES	ERG Ets-DNA blk	miR-21 reporter	Mito fusion yeast	S-ASM inh	RXFP1 ag	RXFP1 antagonist
O=C(NC(Cc1c[nH]c2ccccc12)C(=O)Nc1ccc(OC(F)(F)F)cc1)c1cccs1 (stereo unspecified)	17%	27%	-4%	-19%	0%	-71*
O=C(CSCc1cccc(Br)c1)N=Nc1c(O)[nH]c2ccccc12	1%	-13%	-1%	-19%	-2%	-5
O=Nc1c(-c2c(O)[nH]c3cc(Br)ccc23)[nH]c2ccccc12	91%	18%	1.8µM*!	?	0%	.
CCCCN(CCCC)CCNC(=O)CNC(=O)c1cccs1	2%	-1%	32µM*	0%	2%	3
Cc1c(C)c2c(c(C)c1O)CCC(C)(COc1ccc(CC3SC(=O)NC3=O)cc1)O2 (stereo unspecified)	.	.	.	.	.	-75*
C=CCN(c1ccccc1)S(=O)(=O)c1ccc2c(c1)oc(=O)n2C	9%	-6%	4%	1%	1%	-77*
Oc1oc(-c2ccccc2)nc1C=Nc1cccc2ccccc12	.	-1%	11µM*	72%	2%	12
Cc1cc(C(=O)NCc2ccccc2)c2c(C)nn(-c3cccc(Cl)c3C)c2n1	3%	-4%	.	.	26%	5
COC(=O)c1c(C)[nH]c(C)c1C(=O)c1ccccc1Cc1ccccc1	-2%	.	2.9µM*	-3%	.	.
COC(=O)c1c(C)[nH]c(C=O)c1-c1ccccc1	-19%	-62%	10%	4%	0%	2
N=C1SCC(=O)N1/N=C/c1ccccc1	28µM*	-43%	-3%	8%	2%	3
O=C1OC(/C(=C\Nc2ccc(F)cc2F)[N+](=O)[O-])c2ccccc21 (stereo unspecified)	-1%	27%	20%	-1%	0%	-29
O=C1OC(/C(=C\Nc2cc(Cl)ccc2O)[N+](=O)[O-])c2ccccc21 (stereo unspecified)	1%	9%	-2%	-7%	0%	-82*
CC(=O)OCC(=O)C1(O)CCC2C3CC(F)C4=CC(=O)CCC4(C)C3C(O)CC21C (stereo unspecified)	13%	.	.	-3%	.	9
COc1ccc(CCC(=O)NCCc2csc(-c3cccc(F)c3)n2)cc1	3%	-20%	.	.	1%	-14
O=C(NCCc1csc(-c2ccc(F)cc2)n1)c1ccc(Br)o1	-2%	17%	.	.	-2%	?
COc1ccc(CCC(=O)NCCc2csc(-c3cccc(C)c3)n2)cc1	-2%	-24%	.	.	1%	-73*
O=C(NCCc1csc(-c2cccc(F)c2)n1)c1ccc(Br)o1	5%	10%	.	.	-2%	-78*
CC(C)Sc1ncc(Cl)c(C(=O)N(Cc2ccc(N(C)C)cc2)C2CCS(=O)(=O)C2)n1 (stereo unspecified)	0%	1%	.	.	-4%	.
Cc1cccc(N2CCN(S(=O)(=O)c3ccc(-c4cc(C(F)(F)F)on4)s3)CC2)c1C	3%	3%	.	.	-1%	9
COc1ccc(-n2c(SCC(=O)Nc3ncc(Cl)cc3Cl)nc3ccccc32)cc1	.	16%	3%	.	4%	.
O=C(CSc1nc2ccccc2n1-c1ccccc1)Nc1ncc(Cl)cc1Cl	-6%	?	20µM*	-2%	2%	-10

Two records drawn at random from the list so far:
SMILES	ERG Ets-DNA blk	miR-21 reporter	Mito fusion yeast	S-ASM inh	RXFP1 ag	RXFP1 antagonist
O=C1OC(/C(=C\Nc2cc(Cl)ccc2O)[N+](=O)[O-])c2ccccc21 (stereo unspecified)	1%	9%	-2%	-7%	0%	-82*
Cc1cccc(N2CCN(S(=O)(=O)c3ccc(-c4cc(C(F)(F)F)on4)s3)CC2)c1C	3%	3%	.	.	-1%	9
